Vapor pressure values, as collected for the OPERA models

From the experimental data distributed with OPERA 2.9.

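The OPERA project collected these measurements from public sources as training and test data for property models. One number stands for a compound and property, with no spread given. Method and conditions are not stated for these values. Where a salt, mixture or single isomer is drawn, the source does not say that exactly this form was tested. Some upstream entries may be estimates or bounds without being marked so.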

Vapor pressure is log10 of mmHg; the set covers 15 to 30 °C, mostly 20 to 25 °C.
"via" names the databases from which the curators took the value.

SMILES | log VP (log10 mmHg) | via
Clc1ccc(-c2cc(Cl)c(Cl)c(Cl)c2)c(Cl)c1 | -5.165 | OCHEM
C#C[C@@]1(O)CC[C@@H]2[C@H]3CC=C4C=C(OCC)CC[C@H]4[C@@H]3CC[C@]21C | -8.909 | eChemPortal
O=S(=O)([O-])[O-].OC[P+](CO)(CO)CO.OC[P+](CO)(CO)CO | -5.71 | eChemPortal
CCCCN(C)N=O | -0.222 | PubChem
CNC(=O)Oc1cccc2c1OC(C)(C)C2O (stereo not drawn) | -6.298 | OCHEM
CCOC(=O)COc1cc(-c2nn(C)c(OC(F)F)c2Cl)c(F)cc1Cl | -10.21 | OCHEM, PubChem
Clc1cc2c(oc3cc(Cl)c(Cl)c(Cl)c32)c(Cl)c1Cl | -7.255 | OCHEM
Nc1ccc(-c2ccccc2)cc1 | -3.238 | PubChem
CCCCCCCCCCCC(=O)OOC(=O)CCCCCCCCCCC | -5.921 | eChemPortal
C[C@]12CC[C@H]3[C@@H](CCC4=CC(=O)C=C[C@@]43C)[C@@H]1CC[C@@H]2O | -10.11 | eChemPortal
ClCCCCCCCl | -1.072 | eChemPortal
[Na+].[O-][n+]1ccccc1[S-] | -6.628 | eChemPortal
C#C[C@@]1(OC(C)=O)CC[C@@H]2[C@H]3CC=C4C=C(OCC)CC[C@H]4[C@@H]3CC[C@]21C | -7.771 | eChemPortal
OCC1=C[C@H](N[C@H]2C[C@H](CO)[C@@H](O[C@@H]3O[C@H](CO)[C@@H](O)[C@H](O)[C@H]3O)[C@H](O)[C@H]2O)[C@H](O)[C@@H](O)[C@@H]1O | -7.71 | OCHEM
CCOP(c1ccccc1)c1ccccc1 | -2.963 | eChemPortal
CC(C)C(=O)Cl | 1.631 | eChemPortal
CCCCCCCCCC[N+](C)(C)CCCCCCCCCC.[Cl-] | -4.367 | PubChem, eChemPortal
C=CC(=O)OCCCCO | -2.267 | eChemPortal
CCN(CC)CC#N | 0.264 | eChemPortal
N#CCCSCCC#N | -4.262 | OFMPub
C[C@@H](Oc1ccc(Oc2ccc(C(F)(F)F)cn2)cc1)C(=O)O | -8.227 | eChemPortal
CC(C)CC(C)c1sccc1NC(=O)c1cn(C)nc1C(F)(F)F (stereo not drawn) | -7.317 | OCHEM
Clc1cc(Cl)c2c(c1)Oc1c(Cl)cc(Cl)cc1O2 | -8.28 | OCHEM
O=P(O)(O)c1ccccc1 | -8.253 | eChemPortal
Cc1cccc(C)c1OP(=O)(Oc1cccc(OP(=O)(Oc2c(C)cccc2C)Oc2c(C)cccc2C)c1)Oc1c(C)cccc1C | -5.523 | eChemPortal
O=C(O)COc1ccc(Cl)cc1 | -6.745 | OCHEM
Brc1cc(Br)c(Oc2cc(Br)c(Br)cc2Br)c(Br)c1 | -7.545 | OCHEM
CC1=C(C(=O)O)N2C(=O)[C@@H](N)[C@H]2SC1 | -8.201 | eChemPortal
c1cncc([C@@H]2CCCCN2)c1 | -2.523 | OCHEM
O=c1n(Cl)c(=O)n(Cl)c(=O)n1Cl | -4.824 | OFMPub, eChemPortal
C(=NC1CCCCC1)=NC1CCCCC1 | -1.953 | eChemPortal
Clc1cc(Cl)c(-c2c(Cl)cc(Cl)c(Cl)c2Cl)c(Cl)c1Cl | -5.295 | OCHEM
O=c1oc2ccccc2c(O)c1C1CC(c2ccc(OCc3ccc(C(F)(F)F)cc3)cc2)Cc2ccccc21 (stereo not drawn) | -12 | OCHEM, PubChem
C=C(C)C(=O)OCC1CO1 (stereo not drawn) | 0.498 | PubChem, eChemPortal
NCCc1ccc(S(N)(=O)=O)cc1 | -7.72 | eChemPortal
CC(=O)c1cc2c(cc1C)C(C)(C)C(C)C2(C)C (stereo not drawn) | -5.06 | eChemPortal
c1coc(-c2nc3ccccc3[nH]2)c1 | -8.171 | OCHEM
O=C(Cl)CCCCl | -0.008 | eChemPortal

3 of these entries, quoted again:

| SMILES | log VP (log10 mmHg) | via |
|---|---|---|
| CCCCN(C)N=O | -0.222 | PubChem |
| CCCCCCCCCCCC(=O)OOC(=O)CCCCCCCCCCC | -5.921 | eChemPortal |
| C[C@]12CC[C@H]3[C@@H](CCC4=CC(=O)C=C[C@@]43C)[C@@H]1CC[C@@H]2O | -10.11 | eChemPortal |